{
  "source": "PubChem BioAssay (EPA / NIEHS)",
  "note": "The entries are a selection whose mix differs from that of the whole data set. The source made the active and inactive calls. Rule for the calls: active = hit-call score of the fitted dose curve at least 0.9, where 1 is the maximum; inactive = score below 0.9.",
  "data": [
    {"assay": "ATG_E_Box_CIS: Attagene CIS-FACTORIAL HepG2 Assay for human Enhancer Box (E-box) (AID 2282936)", "settings": "HepG2 E-box cis-reporter transcription, actives raise or lower the signal", "method": "ATG_CIS is a cell-based, multiplexed-readout assay that uses HepG2, a human liver cell line, with measurements taken at 24 hours after chemical dosing in a 24-well plate.ATG_E_Box_CIS is one of 52 assay component(s) measured or calculated from the ATG_CIS assay. It is designed to make measurements of mRNA induction, a form of inducible reporter, as detected with fluorescence intensity signals by Reverse transcription polymerase chain reaction (RT-PCR) and Capillary electrophoresis technology.Data from the assay component ATG_E_Box_CIS was analyzed into 1 assay endpoint. This assay endpoint, ATG_E_Box_CIS, was analyzed with bidirectional fitting relative to DMSO as the negative control and baseline of activity. Using a type of inducible reporter, measures of mRNA for gain or loss-of-signal activity can be used to understand the reporter gene at the transcription factor-level as they relate to the gene USF1. Furthermore, this assay endpoint can be referred to as a primary readout, because this assay has produced multiple assay endpoints where this one serves a reporter gene function. To generalize the intended target to other relatable targets, this assay endpoint is annotated to the dna binding intended target family, where the subfamily is basic helix-loop-helix protein.\nHuman liver HepG2 cells are transiently transfected with multiple reporter transcription units (MRTUs) in 6-well plates using FuGene 6 reagent (Roche; 3 ml FuGene/1 mg DNA). The MRTU constructs are regulated by a cis-regulating element (promoter). […] A major difference between the CIS and TRANS system is that in CIS activities of endogenous TFs are measured, whereas the TRANS assay evaluates changes in activities of exogenous, chimeric NR-Gal4 proteins. […] At the end of 24 hour incubation, total RNA was isolated using TriZol reagent (Invitrogen). The isolated RNA is then reverse-transcribed using oligo(dT) primer and Mo-MLV reverse transcriptase (Invitrogen) with DNAse I (Ambion) treatment for 30 min. The one-tenth of the produced cDNA was amplified by PCR using Taq DNA polymerase (Invitrogen) and two reporter sequence-specific primers. The PCR products were fluorescently labeled by primer extension with 6-arboxyfluorescein (6-FAM) 5'-labeled reporter sequence-specific primer (2 min at 95 C, 20 s at 68 C and 10 min at 72 C) and these products were digested with 5U of HpaI (New England Biolabs) for 2h at 37 C. The fragments were purified using Qiaquick PCR columns (Qiagen), analyzed on an ABI 3130xL genetic analyzer (Applied Biosystems) with peak positions identified by using a set of X-rhodamine (ROX)-labeled MapMarker1000 molecular weight standards (BioVentures). The raw capillary electrophoresis data was processed using Attagraph software (Attagene).", "values": [
      {"smiles": "CCCCO[P+](=O)OCCCC", "outcome": "inactive"},
      {"smiles": "CCCCOP(OCCCC)OCCCC", "outcome": "inactive"},
      {"smiles": "O=[N+]([O-])c1ccc([N+](=O)[O-])cc1", "AC50": "active: 26 µM"},
      {"smiles": "O=C1C2CC=CCC2C(=O)N1SC(Cl)(Cl)C(Cl)Cl", "note": "(stereo unspecified)", "outcome": "inactive"},
      {"smiles": "ClP(Cl)c1ccccc1", "outcome": "inactive"},
      {"smiles": "O=P(Cl)(Oc1ccccc1)Oc1ccccc1", "outcome": "inactive"},
      {"smiles": "Cc1cc([N+](=O)[O-])cc([N+](=O)[O-])c1O", "outcome": "inactive"},
      {"smiles": "CCCCC(CC)CO[P+](=O)OCC(CC)CCCC", "note": "(stereo unspecified)", "outcome": "inactive"},
      {"smiles": "O=[p+]1oc2ccccc2c2ccccc21", "note": "(stereo unspecified)", "outcome": "inactive"},
      {"smiles": "O=[P+](Oc1ccccc1)Oc1ccccc1", "outcome": "inactive"},
      {"smiles": "CN(C(=O)Cc1cccc2occc12)[C@H]1CC[C@@]2(CCCO2)C[C@@H]1N1CCCC1", "AC50": "active: 124 µM"},
      {"smiles": "CC(C)CCCCCCCOP(OCCCCCCCC(C)C)Oc1ccccc1", "outcome": "inactive"},
      {"smiles": "O=C(Cl)OCCOC(=O)Cl", "outcome": "inactive"},
      {"smiles": "O=[As]c1ccccc1", "note": "(stereo unspecified)", "AC50": "active: 0.626 µM"},
      {"smiles": "O=C(Cl)Oc1ccccc1", "outcome": "inactive"},
      {"smiles": "CC(C)OP(=S)(OC(C)C)SCCNS(=O)(=O)c1ccccc1", "outcome": "inactive"}
    ]}
  ]
}
